Experiment: Pharmacokinetic assay in rat
Settings: male SD rats
[1] = i.g. 20 mg/kg in 10% PEG400, parent 3 measured

Substance	Vd [1]	AUC(0-t) (i.g. 20 mg/kg in 10% PEG400, plasma parent compound 3 measured)	Tmax [1]	F (oral bioavailability) (i.g. 20 mg/kg vs 3 i.v. 2 mg/kg, dose-normalized AUC(0-t))
2-Oxo-2-[(3′, 4′-di-O-(S)-camphanoyl-4-methyl-(+)-cis-kellactone-3-yl)methoxy] acetic acid [Compound 7]	0.373 ± 0.193 L/kg	354.2 ± 105.6 ng·L/mL		
2-Oxo-2-[(3′, 4′-di-O-(S)-camphanoyl-4-methyl-(+)-cis-kellactone-3-yl)methoxy] acetic acid [Compound 5]			30 min	10.3%

Reference: PMC3655773 (Acta pharmaceutica Sinica. B, 2012)
